We go through one substance from US20240043456A1, “Crystalline Solid Meglumine Salt Inhibitor of BCL and Methods of Making and Using Same” (Unity Biotechnology, Inc., priority 2020, published 2024).

A short description of the data set: Solubility in water of the salt. Format: physicochemical.

Consider “(R)-5-(4-chlorophenyl)-1-isopropyl-2-methyl-4-(3-(4-(4-((4-((1-(phenylthio)-4-(4-((phosphonooxy)methyl)piperidin-1-yl)butan-2-yl)amino)-3-((trifluoromethyl)sulfonyl)phenyl)sulfonamido)phenyl)piperazin-1-yl)phenyl)-1H-pyrrole-3-carboxylic acid meglumine salt”, for which the “solubility in water” value is reported as “high”.
